This is an account of results in ChEMBL document CHEMBL4800727 (2021).

The source made the active and inactive calls. The rule behind the calls is not given here.

This assay concerns the target T1, cAMP and cAMP-inhibited cGMP 3',5'-cyclic phosphodiesterase 10A (Rattus norvegicus, UniProt Q9QYJ6).
T1 sequence (Q9QYJ6 whole entry): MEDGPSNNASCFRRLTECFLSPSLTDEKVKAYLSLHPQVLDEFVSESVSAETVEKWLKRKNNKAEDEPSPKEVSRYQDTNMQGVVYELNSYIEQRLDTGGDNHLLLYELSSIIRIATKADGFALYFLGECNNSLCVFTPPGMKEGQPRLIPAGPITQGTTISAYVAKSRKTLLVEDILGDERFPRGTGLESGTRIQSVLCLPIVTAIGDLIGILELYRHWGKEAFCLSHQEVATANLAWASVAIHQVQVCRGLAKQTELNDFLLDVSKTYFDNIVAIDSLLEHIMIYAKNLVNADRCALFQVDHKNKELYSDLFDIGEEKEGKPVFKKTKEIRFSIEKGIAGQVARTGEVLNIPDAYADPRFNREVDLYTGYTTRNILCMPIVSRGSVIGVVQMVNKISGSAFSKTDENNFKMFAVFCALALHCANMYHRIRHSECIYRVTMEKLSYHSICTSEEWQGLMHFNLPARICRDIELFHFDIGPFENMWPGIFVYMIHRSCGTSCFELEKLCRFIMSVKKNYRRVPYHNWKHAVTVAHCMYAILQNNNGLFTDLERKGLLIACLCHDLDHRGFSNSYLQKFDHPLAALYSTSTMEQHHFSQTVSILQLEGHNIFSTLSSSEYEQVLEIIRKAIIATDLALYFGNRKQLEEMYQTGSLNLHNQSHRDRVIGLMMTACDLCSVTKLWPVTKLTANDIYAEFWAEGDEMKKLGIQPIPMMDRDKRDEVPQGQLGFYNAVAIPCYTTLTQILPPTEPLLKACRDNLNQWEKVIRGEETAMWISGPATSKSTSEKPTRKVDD
Put plainly: SPA with rat PDE10A.

With `COCCc1ccc(-c2c(C)nc3c(N4CCOCC4)ccnn23)cn1` [JNJ-42396302], the Ki (as a rule, the dissociation constant of the complex between target and ligand, obtained from inhibition or displacement) was active: 19 nM.
